Amino acid sequences for entries named in this document (tags omitted).
UniProt Q61221, whole entry: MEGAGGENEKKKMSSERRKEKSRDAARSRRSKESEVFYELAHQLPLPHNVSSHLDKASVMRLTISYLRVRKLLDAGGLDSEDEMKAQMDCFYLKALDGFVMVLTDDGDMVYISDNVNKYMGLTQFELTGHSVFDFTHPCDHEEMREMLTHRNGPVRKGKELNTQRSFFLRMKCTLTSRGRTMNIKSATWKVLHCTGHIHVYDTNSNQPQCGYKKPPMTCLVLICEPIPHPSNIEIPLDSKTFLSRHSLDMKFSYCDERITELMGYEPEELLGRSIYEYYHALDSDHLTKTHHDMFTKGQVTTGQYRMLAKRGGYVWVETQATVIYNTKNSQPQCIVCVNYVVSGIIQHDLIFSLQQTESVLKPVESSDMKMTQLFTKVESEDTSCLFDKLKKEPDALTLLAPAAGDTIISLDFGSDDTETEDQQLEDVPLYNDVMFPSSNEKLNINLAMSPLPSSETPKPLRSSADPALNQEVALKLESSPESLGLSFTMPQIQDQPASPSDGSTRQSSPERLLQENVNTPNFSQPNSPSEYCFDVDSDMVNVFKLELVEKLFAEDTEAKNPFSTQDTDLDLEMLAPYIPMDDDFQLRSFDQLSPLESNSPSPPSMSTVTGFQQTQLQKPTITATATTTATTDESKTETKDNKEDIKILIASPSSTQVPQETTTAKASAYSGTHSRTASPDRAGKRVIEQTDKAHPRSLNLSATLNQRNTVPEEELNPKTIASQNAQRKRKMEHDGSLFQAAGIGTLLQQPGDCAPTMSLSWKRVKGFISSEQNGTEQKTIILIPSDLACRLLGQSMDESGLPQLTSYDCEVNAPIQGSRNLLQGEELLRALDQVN

According to ChEMBL document CHEMBL5038635, “Discovery of Salidroside-Derivated Glycoside Analogues as Novel Angiogenesis Agents to Treat Diabetic Hind Limb Ischemia” (J Med Chem, 2022):

Target: Hypoxia-inducible factor 1-alpha (Mus musculus) (UniProt Q61221)
Experiment: Inhibition of HIF-1alpha in mouse C2C12 cells transfected with HRE-driven firefly luciferase gene assessed as fold change in transcriptional activity at 300 uM pretreated with compound for 12 hr followed by hypoxic condition for 24 hrs by dual luciferase reporter gene assay
Type: cell-based
Conditions: time 36.0 hrs

Work on COc1ccc(Cc2cccc(O[C@@H]3O[C@H](CO)[C@@H](O)[C@H](O)[C@H]3O)c2)cc1 yielded a fold change (FC) of 2.5.
